Assay results published in patent publication US20030143729A1 (Synaptic Pharmaceutical Corporation, priority 1992, published 2003).

Assays:
rat brain aggregates = assay: [3H]GABA uptake by brain aggregates; type: cell-based; details: read-out: IC50 for inhibition of [3H]GABA uptake, rat brain aggregates, control
TAUT = target: T1, TAUT (Rattus norvegicus, UniProt P31643); assay: [3H]taurine uptake, full competition curves at cloned TAUT (transient transfection, COS cells); type: cell-based
T1 sequence (P31643 1-621): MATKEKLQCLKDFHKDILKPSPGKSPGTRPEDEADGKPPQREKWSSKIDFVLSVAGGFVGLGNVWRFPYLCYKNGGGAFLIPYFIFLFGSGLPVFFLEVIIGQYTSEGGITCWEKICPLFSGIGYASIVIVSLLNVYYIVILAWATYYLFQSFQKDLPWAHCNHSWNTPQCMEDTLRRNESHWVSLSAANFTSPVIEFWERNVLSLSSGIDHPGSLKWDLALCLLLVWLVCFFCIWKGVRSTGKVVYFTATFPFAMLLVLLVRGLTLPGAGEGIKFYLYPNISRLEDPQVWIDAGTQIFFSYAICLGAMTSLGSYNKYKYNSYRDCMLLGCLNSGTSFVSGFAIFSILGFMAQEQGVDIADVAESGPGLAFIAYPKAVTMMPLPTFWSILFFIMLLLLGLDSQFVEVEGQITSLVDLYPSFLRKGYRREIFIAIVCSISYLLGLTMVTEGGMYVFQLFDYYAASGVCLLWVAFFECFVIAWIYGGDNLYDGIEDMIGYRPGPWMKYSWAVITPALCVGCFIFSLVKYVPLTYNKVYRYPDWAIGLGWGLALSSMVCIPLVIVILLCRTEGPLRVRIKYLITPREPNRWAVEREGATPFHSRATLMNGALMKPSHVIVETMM

GAT-3 = target: T2, GAT-3 (Rattus norvegicus, UniProt P31647); assay: [3H]GABA uptake by COS cells transfected with GAT-3 (rB8b or K438-rB8b); type: cell-based; details: read-out: % Inhibition of [3H]GABA uptake, GAT-3
T2 sequence (P31647 1-627): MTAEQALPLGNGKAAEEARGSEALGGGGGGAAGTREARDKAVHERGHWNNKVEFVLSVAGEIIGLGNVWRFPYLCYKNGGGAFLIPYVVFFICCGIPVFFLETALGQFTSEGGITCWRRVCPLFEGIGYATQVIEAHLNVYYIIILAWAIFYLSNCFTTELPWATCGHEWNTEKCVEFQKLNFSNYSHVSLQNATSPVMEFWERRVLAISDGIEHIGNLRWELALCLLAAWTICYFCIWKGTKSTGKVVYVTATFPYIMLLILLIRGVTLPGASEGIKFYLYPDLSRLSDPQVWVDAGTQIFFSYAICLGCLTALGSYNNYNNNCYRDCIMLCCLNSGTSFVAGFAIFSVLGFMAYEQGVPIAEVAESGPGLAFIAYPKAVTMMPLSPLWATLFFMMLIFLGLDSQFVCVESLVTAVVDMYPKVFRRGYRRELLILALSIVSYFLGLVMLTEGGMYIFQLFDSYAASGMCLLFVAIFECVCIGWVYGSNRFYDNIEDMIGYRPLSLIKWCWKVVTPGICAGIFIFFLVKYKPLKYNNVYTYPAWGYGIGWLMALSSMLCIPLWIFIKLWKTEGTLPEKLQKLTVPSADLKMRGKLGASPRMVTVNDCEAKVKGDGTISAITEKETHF

rat GAT-2 = target: T3, rat GAT-2 (Rattus norvegicus, UniProt P31646)
T3 sequence (P31646 1-602): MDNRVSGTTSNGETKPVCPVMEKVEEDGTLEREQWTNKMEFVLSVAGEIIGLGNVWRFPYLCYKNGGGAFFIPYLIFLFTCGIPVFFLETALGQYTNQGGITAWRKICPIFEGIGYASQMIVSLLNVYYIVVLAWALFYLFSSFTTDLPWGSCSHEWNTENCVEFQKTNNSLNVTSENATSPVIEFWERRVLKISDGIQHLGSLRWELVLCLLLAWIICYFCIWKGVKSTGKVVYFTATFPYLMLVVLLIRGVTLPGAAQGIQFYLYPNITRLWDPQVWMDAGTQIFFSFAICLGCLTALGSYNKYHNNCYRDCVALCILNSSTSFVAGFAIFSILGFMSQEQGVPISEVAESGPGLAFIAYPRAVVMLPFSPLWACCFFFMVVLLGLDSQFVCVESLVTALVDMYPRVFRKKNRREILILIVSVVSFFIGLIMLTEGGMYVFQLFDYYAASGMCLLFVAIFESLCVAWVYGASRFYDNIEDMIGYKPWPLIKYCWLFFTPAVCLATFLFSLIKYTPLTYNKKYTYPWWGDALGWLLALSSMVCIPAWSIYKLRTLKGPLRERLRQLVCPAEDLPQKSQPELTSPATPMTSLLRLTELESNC

O-2A/Type 2 astrocytes = assay: [3H]GABA uptake in O-2A/Type 2 astrocyte cultures; type: cell-based; details: Rattus norvegicus
GAT-1 = GAT-1 (Rattus norvegicus, UniProt P23978); assay: cell-based
neuronal cultures = assay: [3H]GABA uptake in primary neuronal cell cultures; type: cell-based; details: Rattus norvegicus, Neuron, read-out: IC50 for inhibition of [3H]GABA uptake, Neurons
GAT-2 = target: T4, GAT-2 (Rattus norvegicus, UniProt P31646); assay: [3H]GABA uptake by COS cells transfected with GAT-2 (rB14b); type: cell-based; details: read-out: % Inhibition of [3H]GABA uptake, GAT-2
T4 construct: randomly primed GAT-2 full-length or GAT-3 truncated or full-length cDNA clones; expressed in transfected cells; host or cells: COS cells, transient, plasmid pEVJB-rB14b
T4 sequence (P31646 1-602): T3 sequence (P31646 1-602)

Type 1 astrocytes = assay: [3H]GABA uptake in Type 1 astrocyte cultures; type: cell-based; details: Rattus norvegicus, read-out: IC50 for inhibition of [3H]GABA uptake, Type 1 astrocytes

Q: Which results are given for `O=C(O)C1CCCNC1` (racemic) [nipecotic, nipecotic acid]?
A: IC50 (rat brain aggregates): 7 ± 0.8 µM; IC50 (TAUT): 2.03 mM; inhibition at 10 µM (GAT-3): 12 ± 6%; IC50 (rat GAT-2): 38 ± 4 µM; IC50 (O-2A/Type 2 astrocytes; read-out: IC50 for inhibition of [3H]GABA uptake, O-2A/Type 2 astrocytes): 12 ± 2 µM; IC50 (O-2A/Type 2 astrocytes; read-out: IC50 for inhibition of [3H]GABA uptake, O-2A/Type 2 astrocytes with NNC-711): 61 ± 20 µM; inhibition at 10 µM (GAT-1): 51 ± 5%; IC50 (neuronal cultures): 18 ± 5 µM; inhibition at 10 µM (GAT-2): 5 ± 5%; IC50 (Type 1 astrocytes): 315 ± 100 µM

Where two headings read alike, the source gives them in different places.
